Values of other authors as cited in US7452717B2 (dated 2008).

Test system: human carboxylesterase
Settings: in patients; cited from earlier work

SMILES: CCc1c2c(nc3ccc(OC(=O)N4CCC(N5CCCCC5)CC4)cc13)-c1cc3c(c(=O)n1C2)COC(=O)[C@]3(O)CC [CPT-11, 7-ethyl-10-[4-(1-piperidino)-1-piperidino]carbonyloxycamptothecin]
- prodrug metabolized to SN-38: less than 5%
